According to PubChem BioAssay AID827 (SRMLSC, 2007):
Only a part is listed here, and it is no random draw. Activity calls are given as the source filed them.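 Rule for the calls: active = viability at or below a set limit, 4 SD under the median of all tested compounds (cut at about 3.7% in these data); inactive = the rest.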

Assay: viability loss in PTEN-deleted colon tumor cells – cell-based, HCT116, CellTiter-Glo, primary screen (AID 827);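 note: PTEN knockout HCT116 line with beta catenin targeted HCT116 as companion control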
Details: HCT116 PTEN-null viability, 60 h, at 10 µM, hits give low values

Structure (SMILES) | viability
CCOC(=O)c1ccc(NP(C)(=O)Oc2ccc(Cl)cc2)cc1 (stereo not drawn) | inactive: 103%
CP(=O)(OC12CC3CC(CC(C3)C1)C2)OC12CC3CC(CC(C3)C1)C2 | inactive: 80.7%
CC(C)(C)c1ccc(OP(C)(=O)O)cc1 | inactive: 87.9%
CP(=O)(Nc1ccc(Cl)cc1)Oc1ccc(F)cc1 (stereo not drawn) | inactive: 89.4%
CP(=O)(Oc1ccccc1)N1CCOC1=O (stereo not drawn) | inactive: 89.5%
COc1ccc(OP(C)(=O)Nc2ccc(Br)cc2)cc1 (stereo not drawn) | inactive: 89.4%
CCN(CC)CC(O)COC(=O)C(O)(c1ccccc1)C1CCCCC1 (stereo not drawn) | inactive: 90.8%
COc1ccccc1OP(C)(=O)Nc1ccc(C)cc1C (stereo not drawn) | inactive: 93.5%
CP(=O)(Nc1ccccn1)Oc1ccccc1 (stereo not drawn) | inactive: 111%
CCc1ccc(OP(C)(=O)O)cc1 | inactive: 93.5%
Cc1c(NP(C)(=O)Oc2ccc(C(C)C)cc2)c(=O)n(-c2ccccc2)n1C (stereo not drawn) | inactive: 96%
COc1ccc(OP(C)(=O)Nc2ccccn2)cc1 (stereo not drawn) | inactive: 103%
CN(C)CCOC(=O)C(O)(c1ccccc1)C1CCCC1 (stereo not drawn) | inactive: 102%
COc1ccccc1OP(C)(=O)Nc1ccc(C)c(C)c1 (stereo not drawn) | inactive: 93.3%
COc1ccc(OP(C)(=O)Nc2ccccc2Br)cc1 (stereo not drawn) | inactive: 97.5%
CP(=O)(Nc1ccccc1)Oc1ccc(F)cc1 (stereo not drawn) | inactive: 89.8%
CCN(CC)CCCOC(=O)C(O)(c1ccccc1)C1CCCCC1 (stereo not drawn) | inactive: 98.1%
CCOC(=O)c1ccc(NP(C)(=O)Oc2ccc(F)cc2)cc1 (stereo not drawn) | inactive: 89.6%
O=C(OCCN1CCN(CCOCc2ccccc2)CC1)C(O)(c1ccccc1)c1ccccc1 | inactive: 95.1%
CP(=O)(Nc1ccccc1F)Oc1ccccc1 (stereo not drawn) | inactive: 96.2%
CC(C)c1ccc(OP(C)(=O)Nc2ccc(SC(F)(F)F)cc2)cc1 (stereo not drawn) | inactive: 68.7%
Cc1ccccc1NP(C)(=O)Nc1ccccc1C | inactive: 87%
CP(=O)(Nc1ccc2c(c1)OCCO2)Oc1ccccc1 (stereo not drawn) | inactive: 109%
CCOP(C)(=S)SCC(=O)NC(C)(CC)C(=O)O (stereo not drawn) | inactive: 91.3%

Structure (SMILES) | viability
CN(C)CCOC(=O)C(O)(c1ccccc1)C1CCCCC1 (stereo not drawn) | inactive: 102%
COc1ccc(OP(C)(=O)Nc2cccc(Br)c2)cc1 (stereo not drawn) | inactive: 96.2%
CP(=O)(Nc1ccc(SC(F)(F)F)cc1)Oc1ccccc1 (stereo not drawn) | inactive: 78%
CN1CCCCC1COC(=O)C1(O)c2ccccc2CCc2ccccc21 (stereo not drawn) | inactive: 78.8%
COc1ccccc1OP(C)(=O)Nc1c(C)cccc1C (stereo not drawn) | inactive: 101%
Cc1nc2ccc3ccccc3c2s1.O=[N+]([O-])c1cc([N+](=O)[O-])c(O)c([N+](=O)[O-])c1 | inactive: 99.3%
Cc1ccc(C)c(NP(C)(=O)Oc2ccccc2)c1 (stereo not drawn) | inactive: 87.3%
Cc1cc(C)cc(OP(C)(=O)Nc2ccccn2)c1 (stereo not drawn) | inactive: 94%
CCOC(=O)c1ccc(NP(C)(=O)Oc2cc(C)cc(C)c2)cc1 (stereo not drawn) | inactive: 58.6%
Cc1cc(C)cc(OP(C)(=O)Nc2ccc(C)cc2C)c1 (stereo not drawn) | inactive: 84.8%
CC1=NCCc2c1[nH]c1ccccc21.O=[N+]([O-])c1cc([N+](=O)[O-])c(O)c([N+](=O)[O-])c1 | inactive: 87.5%
COc1ccc(OP(C)(=O)Nc2cccc(F)c2)cc1 (stereo not drawn) | inactive: 97.7%
Cc1ccc(NP(C)(=O)Oc2ccccc2)c(C)c1 (stereo not drawn) | inactive: 97.2%
COc1ccccc1OP(C)(=O)Nc1ccc(C)cc1 (stereo not drawn) | inactive: 89.5%
CCOC(=O)c1ccc(NP(C)(=O)Oc2ccccc2)cc1 (stereo not drawn) | inactive: 92.6%
CC(C)(C)c1ccc(OP(C)(=O)Nc2ccc(SC(F)(F)F)cc2)cc1 (stereo not drawn) | inactive: 78.5%
CP(=O)(Nc1ccccn1)Oc1ccc(Cl)cc1 (stereo not drawn) | inactive: 101%
CCOC(=O)c1ccc(NP(C)(=O)Oc2ccc(OC)cc2)cc1 (stereo not drawn) | inactive: 95.7%
CCOP(C)(=S)SCC(=O)NC(C)C(=O)O (stereo not drawn) | inactive: 92.5%
Cc1cc(C)cc(OP(C)(=O)Nc2ccc(SC(F)(F)F)cc2)c1 (stereo not drawn) | inactive: 81.5%
CP(=O)(NC(=O)Nc1ccccc1)Oc1ccccc1 (stereo not drawn) | inactive: 91.6%
Cc1cccc(C)c1OP(C)(=O)Nc1ccc(SC(F)(F)F)cc1 (stereo not drawn) | inactive: 37.6%
CP(=O)(Nc1ccccc1Br)Oc1ccccc1 (stereo not drawn) | inactive: 96.9%
CP(=S)(Nn1cnnc1)Oc1ccccc1 (stereo not drawn) | inactive: 112%
